These results are taken from ChEMBL document CHEMBL3120054, “1-Aryl-2-((6-aryl)pyrimidin-4-yl)amino)ethanols as competitive inhibitors of fatty acid amide hydrolase” (Bioorg Med Chem Lett, 2014).

By UniProt entry, the sequences of proteins in these tests, tags left out.
UniProt P97612, whole entry: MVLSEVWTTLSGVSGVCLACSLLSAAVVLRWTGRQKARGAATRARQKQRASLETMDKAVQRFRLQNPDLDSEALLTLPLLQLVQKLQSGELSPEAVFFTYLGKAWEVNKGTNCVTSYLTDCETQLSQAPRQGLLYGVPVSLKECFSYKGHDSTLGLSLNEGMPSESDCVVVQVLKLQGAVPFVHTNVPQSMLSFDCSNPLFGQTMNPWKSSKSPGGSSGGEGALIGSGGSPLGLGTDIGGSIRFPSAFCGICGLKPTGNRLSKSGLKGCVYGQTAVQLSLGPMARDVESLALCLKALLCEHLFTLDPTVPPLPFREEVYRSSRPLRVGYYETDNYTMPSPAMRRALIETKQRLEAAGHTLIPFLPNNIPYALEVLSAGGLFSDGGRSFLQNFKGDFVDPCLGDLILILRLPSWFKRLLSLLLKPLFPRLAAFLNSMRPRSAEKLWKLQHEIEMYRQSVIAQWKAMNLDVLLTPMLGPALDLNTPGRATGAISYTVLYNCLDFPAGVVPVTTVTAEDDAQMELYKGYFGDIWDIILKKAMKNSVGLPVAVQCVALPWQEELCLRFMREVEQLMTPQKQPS

This assay concerns the target Fatty-acid amide hydrolase 1 (Rattus norvegicus, UniProt P97612).
Molecule `CC(=O)c1ccc(-c2cc(NC[C@H](O)c3ccccc3)ncn2)cc1F` returned an IC50 of 0.0054 µM.

Regarding `O[C@@H](CNc1cc(-c2ccc(C(F)(F)F)cc2)ncn1)c1ccccc1`, half-maximal inhibition (IC50) was put at 0.094 µM.

The molecule `O[C@@H](CNc1cc(-c2ccc(OC(F)(F)F)c(F)c2)ncn1)c1ccccc1` yielded an IC50 of 0.039 µM.

`O[C@@H](CNc1cc(-c2ccc(C(F)(F)F)c(Cl)c2)ncn1)c1ccc(F)c(F)c1` registered an IC50 of 0.007 µM.

In turn, `O[C@@H](CNc1cc(-c2ccc(Cl)c(C(F)(F)F)c2)ncn1)c1ccccc1` had an IC50 of 0.21 µM.

In turn, `O[C@@H](CNc1cc(-c2ccc(OCC(F)(F)F)c(F)c2)ncn1)c1ccccc1` had an IC50 of 0.086 µM.

As usually defined, the IC50 is the concentration that gives 50% inhibition. High values mean a need for much substance, low ones inhibition by little substance.
